Target: Mu-type opioid receptor (Mus musculus) (UniProt P42866)
Test: Agonist activity at mouse MOR expressed in CHO cell membranes assessed as stimulation of [35S]-GTPgammaS binding measured after 1 hr by scintillation counting analysis relative to DAMGO
Type: functional
Conditions: Cell membrane

By UniProt entry, the sequences of proteins in these tests, tags left out.
UniProt P42866, whole entry: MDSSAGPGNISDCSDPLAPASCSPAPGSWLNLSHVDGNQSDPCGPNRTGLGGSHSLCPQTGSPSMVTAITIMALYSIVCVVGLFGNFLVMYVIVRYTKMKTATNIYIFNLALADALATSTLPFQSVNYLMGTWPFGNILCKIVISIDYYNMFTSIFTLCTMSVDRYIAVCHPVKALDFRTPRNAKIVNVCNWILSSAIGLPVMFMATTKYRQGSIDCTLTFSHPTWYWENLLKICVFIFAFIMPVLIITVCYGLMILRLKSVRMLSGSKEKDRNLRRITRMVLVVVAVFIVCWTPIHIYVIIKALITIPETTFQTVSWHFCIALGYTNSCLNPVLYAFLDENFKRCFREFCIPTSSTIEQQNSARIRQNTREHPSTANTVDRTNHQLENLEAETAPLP

## CC(C)c1nnc(CCNC(=O)COCC(=O)NCCCCCCCNC(=O)COCC(=O)N[C@@H]2CC[C@@]3(O)[C@H]4Cc5ccc(O)c6c5[C@@]3(CCN4CC3CC3)[C@H]2O6)n1C1C[C@H]2CC[C@@H](C1)N2CC[C@H](NC(=O)C1CCC(F)(F)CC1)c1ccccc1 (stereo partly specified)
  Emax: 9.22%

— ChEMBL document CHEMBL5042476, “Structure-Based Design and Development of Chemical Probes Targeting Putative MOR-CCR5 Heterodimers to Inhibit Opioid Exacerbated HIV-1 Infectivity” (J Med Chem, 2021)
